## Ab-95 light chain CDR variants: yeast mating affinities

Values reported by Engelhart et al. 2022, doi:10.1038/s41597-022-01779-4 (FLAb copy).

Antigen: PDVDLGDISGINAS, a 14-residue peptide of the SARS-CoV-2 spike HR2 region.

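In library AAYL52, one, two or three CDR residues were substituted; doubles and triples were drawn at random. AlphaSeq pools MATa yeast showing the antibodies with MATalpha yeast showing the peptide. The frequency of each diploid, read from paired DNA barcodes, reflects how well the two displayed proteins bind. Read counts were normalised to the haploid input and turned into Kd by a linear fit to BCL2-family pairs of known affinity, for each replicate. Mating was done three times.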

Parent scFv Ab-95: VH joined to VL by the linker GGGGSGGGGSGGGGS. Changes lie in the light chain CDRs alone.
VH: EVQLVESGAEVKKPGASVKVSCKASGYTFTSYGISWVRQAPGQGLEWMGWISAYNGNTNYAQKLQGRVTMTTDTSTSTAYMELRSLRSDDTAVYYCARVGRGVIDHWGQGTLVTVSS
VL: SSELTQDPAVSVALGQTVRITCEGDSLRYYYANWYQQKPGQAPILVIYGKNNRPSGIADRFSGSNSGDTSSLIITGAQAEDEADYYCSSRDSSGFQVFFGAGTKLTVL

The parent's light chain CDRs are EGDSLRYYYAN, GKNNRPS, SSRDSSGFQVF; each variant's own CDRs replace them letter for letter. Affinities are written as log10 Kd with Kd in nM; a lower number is a better binder. An entry "ND" has no value in the source: the pair was not observed among the diploids in that replicate. This suggests poor binding but is not conclusive. For reference, the parent read 2.31 as the reference entry and 2.25 as a member of this library. Empty control strains, which show no peptide, gave a signal in 28% of pairings with library AAYL52; the median was 3.91 and 95% of these signals were weaker than 2.90. No background was subtracted. For each scFv, signals with the empty controls are counted beside the result, with their mean in brackets.

CDR-L1	CDR-L2	CDR-L3	log10 Kd (nM) by replicate	control signals
EGDSLRYYYAF	GKSQRPS	SSRDSSGFQVF	3.87 / 4.20 / ND	3/9 (4.36)
EGDSLRYYYAQ	GINNRPS	SSRDSSGFQGF	ND / 5.15 / ND	0/9
EGDVLRYYYAN	GKNNRPS	DSRDSSNFQVF	3.61 / 3.18 / ND	7/9 (3.51)
EGDQLRYYYAG	GFNNRPS	SSRDSSGFQVF	1.86 / 2.57 / 1.84	3/9 (3.83)
EGDSLRYYYAN	GKNNRPK	SSRDSSGFQKF	2.77 / 3.56 / 3.35	1/9 (4.85)
EGDSLRFYYAN	GKNNRPS	SSRNSSGFSVF	2.81 / ND / ND	0/9
EGDSLRYYYAN	GKNNRPS	SSRMSSNFQVF	2.14 / 2.15 / 1.83	4/9 (3.88)
EKDSLRYYYAN	GKNNRPS	SSRPSSPFQVF	3.42 / 3.51 / 2.68	2/9 (3.33)
EGDPLRYYYNN	GCNNRPS	SSRDSSGFQVF	3.95 / 4.34 / 4.10	3/9 (3.63)
CGDSLRYYYAN	GKNNRPS	SSRDSSGFQGF	5.62 / ND / ND	2/9 (4.73)
EGQSLRYYYAN	GKNKRPS	SSRDSSGFQVF	3.44 / 2.93 / 2.89	2/9 (3.85)
EHPSLRYYYAG	GKNNRPS	SSRDSSGFQVF	5.36 / 3.35 / ND	3/9 (2.98)
EGDSLDYYYAN	GKGNRPS	SSRDSSGFNVF	2.34 / 2.28 / 2.10	6/9 (4.21)
EGDSLRYYYIN	GKNNRWS	SSRDSSGFQVK	4.83 / ND / ND	1/9 (3.46)
EGDSLRYYAAN	GKNNRFS	SSRDSSGFQVF	2.74 / 2.11 / 2.11	4/9 (4.03)
EGDSLRYYYAN	GKHNRPS	SSRDSSGFQYF	ND / 4.62 / ND	5/9 (3.74)
EGDHLRYYYAN	GKNNRPS	FSRDSPGFQVF	ND / 5.89 / ND	3/9 (4.43)
EGDSLRYYYNN	GKNNEPS	SSRDSSGHQVF	4.52 / 4.79 / ND	3/9 (3.91)
FGDSLRYYYAN	GKQNRPS	SSRDSSGFQVF	3.02 / 3.27 / 3.08	3/9 (3.89)
EGDSLRYYCPN	GKNNRPS	MSRDSSGFQVF	1.53 / 1.35 / 0.88	2/9 (4.14)
EGDSLRYYYAN	NKNPRPS	SSRDKSGFQVF	ND / 3.98 / ND	3/9 (3.51)
EGDSLRYYYAN	GKNNIPS	SSRDSRGFQVM	ND / 4.60 / ND	2/9 (3.40)
EGDRLRYYYAN	FKNNRPS	SSRDSSGFQTF	ND / 4.48 / 4.21	2/9 (4.06)
EGDSLRYYYAN	GVNNESS	SSRDSSGFQVF	4.09 / ND / ND	3/9 (4.12)
EGDSLRYYYAN	GKNWRPS	SSRDSSGFHVS	3.63 / 2.72 / ND	1/9 (3.29)
EFDSLRYYYAN	GKNNRPS	SSRDSSGHQVF	3.61 / 4.06 / 3.26	4/9 (3.71)
EGDSLRYEYAN	GKNNRPS	SERDSEGFQVF	1.67 / 1.58 / 1.55	2/9 (2.87)
EGDSLRYYKAN	GKNNRPS	SSRDSFGFQVF	3.93 / ND / ND	0/9
EGDSLRYEYAR	GKNNRPS	SSRDSSGFSVF	0.98 / 1.00 / 0.29	5/9 (4.73)
HGDSLRYYYAN	GKNNRPS	SSRDSSGFNVL	3.34 / 3.48 / 2.96	3/9 (3.94)
EGDSGRYYYAN	GKNNVPS	RSRDSSGFQVF	ND / ND / ND	1/9 (2.38)
EGDSLRYYYAN	GGNNRMS	SSRDSMGFQVF	3.74 / 4.31 / 3.51	1/9 (3.76)
EGDSLKYYYAN	GKNTRPV	SSRDSSGFQVF	2.29 / 2.05 / 1.86	2/9 (4.42)
VGDSLRYYYAN	GKNNRPH	SSRDSSGFQVQ	3.50 / 3.64 / 3.55	1/9 (3.52)
EGGSLRYYYAN	GKDNRPS	SSRDSSGFQVV	3.04 / 2.58 / 2.35	4/9 (3.26)
EGISLRYYYAN	GKNNRPH	SSRDSSQFQVF	4.25 / 3.52 / 3.44	3/9 (4.11)
EGDSLRYYMAN	GKANRPS	SSRDSSGTQVF	2.55 / 2.49 / 2.41	5/9 (3.80)
EGDSLRYYYAN	GKQNRPS	SFLDSSGFQVF	3.54 / ND / 3.79	0/9
EGDSLRYYYAN	GKNNTPY	SSRDSSGFQVN	ND / ND / 3.25	0/9
EGDSLRYYYAN	GKNNRPS	SSRDSSGFQVS	2.11 / 1.95 / 1.79	2/9 (3.42)
EGDSLRYYYAN	GKNDRPS	SSRDSSGFQVF	2.04 / 1.69 / 1.76	3/9 (3.97)
EGDSCYYYYAN	GKENRPS	SSRDSSGFQVF	2.98 / 2.84 / 2.65	1/9 (4.03)
EGDKLRYYYAN	PKNNRPS	SSRDSSGFKVF	3.56 / 3.44 / ND	6/9 (4.38)
EGWSLRYYYAS	GKNNRPS	SSEDSSGFQVF	ND / ND / ND	0/9
EGDWLRYYYAN	GKNNRPS	SSRDCSGFHVF	ND / 3.04 / 3.00	2/9 (3.68)
EGDALRYYYAM	GKGNRPS	SSRDSSGFQVF	2.37 / 1.96 / 1.90	3/9 (4.05)
EGDSLRYYYAS	GKNNRPS	SSRDSSGFQVF	1.92 / 1.57 / 1.49	5/9 (4.26)

The first 2 variants above that were never detected:

{"CDR-L1": "EGDSGRYYYAN", "CDR-L2": "GKNNVPS", "CDR-L3": "RSRDSSGFQVF", "log10 Kd (nM) by replicate": "ND / ND / ND", "control signals": "1/9 (2.38)"}
{"CDR-L1": "EGWSLRYYYAS", "CDR-L2": "GKNNRPS", "CDR-L3": "SSEDSSGFQVF", "log10 Kd (nM) by replicate": "ND / ND / ND", "control signals": "0/9"}